Rows were chosen to be rich in hits. Some 13% of all compounds tested hit in one or more screens of this group.
JMJD2E inh: blocks human JMJD2E demethylase activity; B2RXH2; JMJD2E catalytic domain, FDH-coupled NADH fluorescence (FDH is formaldehyde dehydrogenase); Potency, µM (doses to about 57.1 µM), for inactives: at the top dose activity change, negative = inhibition, most hits filed as inhibitors; 230,000 compounds, 1.6% hits; active = well fitted inhibition curve with a large enough effect, not every such curve was filed as active; inconclusive = small, poorly fitted or top-dose-only effect, or another doubt; inactive = no such curve, though single readings can be large or run the other way;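 note: potency is the fitted concentration of half-maximal effect; 0% = wells with enzyme and -100% = buffer wells without enzyme; nearly all actives have a fitted effect of over 50% in size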
miR-21 FLuc: miR-21 reporter, rising signal; HeLa miR-21 FLuc reporter, luciferase, 48 h; Potency, µM (titrated, usually from 38.3 µM), without a hit: top-dose reporter change, positive = more light; AID 2288; 340,000 tested, under 10 active; active = well fitted rising curve with a large enough effect; inconclusive = small, poorly fitted or top-dose-only effect; inactive = no such curve, though single readings can be large or run the other way;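 further: % of control where 0% means no effect; miR-21 action dims this reporter so a rising signal means less miR-21 action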
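HeLa cells endogenously expressing miR-21, stably carrying CMV-driven firefly luciferase with a downstream miR-21 binding site, 2000 cells/well. Titrations up to approximately 40 uM, 48 hours; luciferase luminescence read.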
ALDH1A1 inh: inhibitors of human aldehyde dehydrogenase 1A1; 220,000 compounds, 7.3% hits; Potency, µM (doses to about 75.3 µM), for the others: at the top dose activity, negative = inhibition, actives largely listed as inhibitors; Purified ALDH1A1, NADH fluorescence, propionaldehyde substrate; P00352; active = well fitted inhibition curve with a large enough effect, not every such curve was filed as active; inconclusive = small, poorly fitted or top-dose-only effect, or another doubt; inactive = no such curve, though single readings can be large or run the other way;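 note: potency is the fitted concentration of half-maximal effect; plate controls were no enzyme wells and a reference inhibitor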
Lamin A splicing: modulators of lamin A splicing; HeLa LMNA splicing GFP/RFP minigene ratio, 48 h; Potency, µM (highest dose often 46.1 µM), for the others: at the highest dose ratio change, negative = inhibition, usual class: inhibitors; 200,000 compounds, 0.01% hits; AID 1487; active = well fitted inhibition curve with a large enough effect in the signal ratio, with a control signal flat, not every such curve was filed as active; inconclusive = small, poorly fitted or top-dose-only effect, or effect the other way, or a change in a side signal; the % refers to the signal ratio; note: potency is the fitted concentration of half-maximal effect; % is set by controls: 0 for no effect and ±100 for the full control effect
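Read-out is the ratio of GFP to DsRed2 object intensity, acquired by 488 nm laser-scanning cytometry on HeLa lamin A-EGFP minigene reporter cells. Compound incubation 48 hrs at 37 °C in Opti-MEM with 2% FBS; DMSO 0.5% final.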
G9a inh: blocks human histone lysine methyltransferase G9a. Q96KQ7. G9a H3K9 monomethylation, AlphaScreen, 2 h. Potency, µM (titrated, usually from 102 µM), for the others: top-dose activity, negative = inhibition, actives largely listed as inhibitors. 350,000 compounds, 8.8% hits. AID 504332; note: potency is the fitted concentration of half-maximal effect; % is set by controls: 0 for no effect and ±100 for the full control effect; nearly all actives have a fitted effect of over 75% in size
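Step 1: enzyme (final 20 nM) with compound, 15 min RT. Step 2: substrate peptide 500 nM and SAM 20 uM, 2 h RT. Step 3: anti-H3K9me1 antibody and AlphaScreen beads, 10 min, then plate read.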
Sfp PPTase inh: qHTS Assay for Inhibitors of Bacillus subtilis Sfp phosphopantetheinyl transferase (PPTase) | 4'-phosphopantetheinyl transferase ffp (Bacillus subtilis), Q9F4F7 | Biochemical Sfp PPTase activity, qHTS | Potency, µM, for inactives: max response, negative = inhibition, actives largely listed as inhibitors | 3.5% of 310,000 active; active = well fitted inhibition curve with a large enough effect; inconclusive = small, poorly fitted or top-dose-only effect, or another doubt; inactive = no such curve, though single readings can be large or run the other way;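 also: the enzyme is Sfp with the accession as filed and its product quenches rhodamine fluorescence; potency is read from the fitted curve at half-maximal effect; 0% = enzyme reaction without inhibitor and -100% = no enzyme wells; top concentration of the series not given in the record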
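After 15 min at room temperature with compound, 15 nM Sfp received 5 uM rhodamine-CoA plus 12.5 uM BHQ-2-ybbR (50 mM Hepes pH 7.6, 10 mM MgCl2). Rate came from the fluorescence difference over 30 min, ex 525/em 598 nm.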
* marks the source's active call; other numbers are inactive results; ? = inconclusive; · = no result given; [ ] = dose if it differs, or a comment. Unless noted, calls come from the whole dose curve; as a rule, active = well fitted curve in the direction sought with a large enough effect; inconclusive = small, poorly fitted or top-dose-only effect, or another doubt; inactive = no such curve, though single readings can be large; an effect the other way counts as inactive or inconclusive.

Compound	JMJD2E inh	miR-21 FLuc	ALDH1A1 inh	Lamin A splicing	G9a inh	Sfp PPTase inh
O=C(O)c1ccc[nH]c1=S	17.8µM*	0.6%	·	·	3.55µM*	8.91µM*
O=C(O)c1cccc2nc3ccccc3nc12	-14.6%	0.5%	?	-26.4%[46 µM]	39.8µM*	17.6%
COC(=O)c1ccccc1-n1c(C)nc2ccccc2c1=O	-3.5%	-11.6%	7.9%	6.1%	27.4%[59 µM]	-4.7%
O=C(O)c1ccccc1S	-5.8%	-0.2%	-9.5%	-0.5%	39.8µM*	?
O=C(O)c1ccccc1C(=O)O	·	·	28.2µM*	·	1.0%[0.501 µM]	·
C[N+]1([O-])CCC[C@@H]1c1cccnc1 (stereo partly specified)	·	·	-1.0%	·	32.4%[59 µM]	30.5%
c1ccc(N2CC[C@@]3(CCCNC3)C2)cc1	·	·	?	·	-29.5%[12.7 µM]	?
CCOC(=O)C1C(C=C(C)C)C1(C)C (stereo unspecified)	1.5%	·	7.9%	?	·	5.0%
CC(=O)OCC1=C[C@H]2[C@@H]3C(C)(C)[C@]3(OC(=O)Cc3ccccc3)C[C@@H](C)[C@]2(O)[C@@H]2C=C(C)C(=O)[C@@]2(O)C1	·	·	·	·	·	15.3%
Cc1cc2oc(=O)cc(-c3ccccc3)c2c(C)c1-c1ccc(CO)cc1	·	·	?	·	?	126µM*
Cc1ccc(NC(=O)c2cc(S(=O)(=O)N3CCOCC3)c(Cl)cc2Cl)cc1	·	?	·	·	15.0%[59 µM]	·
CC(C)CON=O	·	·	31.6µM*	·	·	·
Cc1ccc(OCC(=O)N2CCN(Cc3ccc(F)cc3)CC2)cc1	·	10.9%	·	·	1.26µM*	·
O=C(COc1ccc(Cl)cc1)N1CCN(Cc2ccc([N+](=O)[O-])cc2)CC1	?	23.1%	?	-24.3%[46 µM]	2.51µM*	?
O=[N+]([O-])c1cccc(CN2CCN(Cc3ccc(Cl)cc3)CC2)c1	28.2µM*	7.2%	?	?	3.55µM*	?
O=C(COc1ccc2ccccc2c1)N1CCN(Cc2c[nH]c3ccccc23)CC1	?	-2.6%	?	?	?	-26.0%
O=C(COc1ccc(Br)cc1)N1CCN(Cc2c[nH]c3ccccc23)CC1	?	16.1%	?	?	20µM*	-19.3%
O=C(Oc1ccccc1)N1CCC2(CCN(Cc3ccccc3)CC2)CC1	·	·	?	·	8.4%[12.7 µM]	11.1%
COc1ccc(CCn2c(NN=C3CCCCC3)nc3c2c(=O)[nH]c(=O)n3C)cc1	?	11.6%	·	·	-6.4%[59 µM]	?
ClC(Cl)Cl	·	·	-13.9%	?	35.6%[59 µM]	11.6%
Cc1oc2ccc(O)c(CN3CCCCCC3)c2c1C(=O)Nc1cccc(Cl)c1C	·	?	·	·	-26.4%[59 µM]	·
CC1OC(=O)C(C(C)C)NC(=O)C(C(C)C)OC(=O)C(C(C)C)NC(=O)C(C)OC(=O)C(C(C)C)NC(=O)C(C(C)C)OC(=O)C(C(C)C)NC(=O)C(C)OC(=O)C(C(C)C)NC(=O)C(C(C)C)OC(=O)C(C(C)C)NC1=O (stereo unspecified)	-2.3%	·	-3.1%	·	16.6%[59 µM]	26.5%
COc1cc(O)c(C(=O)O)c(-c2cc(O)c(O)cc2C)c1	14.1µM*	29.5%	·	·	0.355µM*	2.1%
Cc1ccc2c(c1)=C/C(=C\c1c(O)[nH]c(=S)[nH]c1=O)C(=O)N=2	?	-4.1%	3.55µM*	-23.2%	3.55µM*	7.08µM*
Cc1ccc2c(c1)=NC(=O)/C(=C/c1c(O)[nH]c(=O)[nH]c1=O)C=2	?	-3.4%	·	·	?	35.5µM*

4 compounds out of the list, sorted by number of heavy atoms, falling.
Compound	JMJD2E inh	miR-21 FLuc	ALDH1A1 inh	Lamin A splicing	G9a inh	Sfp PPTase inh
COC(=O)c1ccccc1-n1c(C)nc2ccccc2c1=O	-3.5%	-11.6%	7.9%	6.1%	27.4%[59 µM]	-4.7%
O=C(O)c1cccc2nc3ccccc3nc12	-14.6%	0.5%	?	-26.4%[46 µM]	39.8µM*	17.6%
CCOC(=O)C1C(C=C(C)C)C1(C)C (stereo unspecified)	1.5%	·	7.9%	?	·	5.0%
O=C(O)c1ccccc1S	-5.8%	-0.2%	-9.5%	-0.5%	39.8µM*	?

Additional compounds follow:
Compound	JMJD2E inh	miR-21 FLuc	ALDH1A1 inh	Lamin A splicing	G9a inh	Sfp PPTase inh
CC1=Nc2ccccc2/C1=C/c1c(O)[nH]c(=O)[nH]c1=O	·	-1.5%	·	·	79.4µM*	-0.3%
COc1ccc(OC)c(N=Cc2c(O)[nH]c(=O)[nH]c2=O)c1	·	-4.8%	·	·	-28.0%	-11.3%
CC12CCCCC1(O)[N+](=O)C1=C(CCCC1)N2[O-] (stereo unspecified)	-21.6%	-2.3%	-3.7%	6.7%	?	?
Cc1nn(CCC#N)c2c1P(=S)(N1CCCC1)OC(c1ccc(F)cc1)=N2 (stereo unspecified)	-13.0%	-3.0%	7.08µM*	-8.3%	15.8µM*	10µM*
CN1C(=O)C(=Cc2coc3ccccc3c2=O)C(=O)N(C)C1=O	-11.3%	-13.6%	0.891µM*	·	31.6µM*	-19.8%
CN1C(=O)C(=Cc2cn(CC#N)c3ccccc23)C(=O)N(C)C1=O	·	0.2%	·	·	-16.8%	-8.0%
COc1ccc(NC(c2ccccc2)P(=O)(Oc2ccccc2)Oc2ccccc2)cc1 (stereo unspecified)	11.7%	-14.5%	-8.8%	-4.3%	25.1µM*	5.3%
O=C(c1cc2ccccn2n1)N1CCN(Cc2ccccc2)CC1	?	-28.9%	?	-0.1%	?	-17.6%
COc1cc2[nH]c(=S)n(-c3ccccc3)c(=O)c2cc1OC	-3.5%	-0.6%	1.58µM*	·	-21.2%	3.0%
COc1ccc(-n2c(=O)[nH]c3ccccc3c2=O)c(OC)c1	-4.0%	1.4%	1.6%	-8.3%	-34.8%[59 µM]	-12.2%
COc1ccc(-n2c(=S)[nH]c3c(sc(=S)n3-c3ccccc3)c2=O)c(OC)c1	-7.4%	-1.6%	3.16µM*	·	2.51µM*	14.1µM*
O=C(Cl)C(Cl)(Cl)Cl	·	·	-5.2%	·	·	·
CCCCC/C=C\C=C\[C@H](CCCCCCCC(=O)O)OO	-3.5%	·	2.2%	·	6.7%[59 µM]	19.6%
C=C(C)CCl	·	·	2.5%	·	·	·
COc1ccc(C2SCC(=O)Nc3c2c(=O)[nH]n3C2CCCCCC2)cc1 (stereo unspecified)	8.3%	-6.4%	-14.6%	0.3%	70.8µM*	-12.7%
Cc1ccc(C)c(S(=O)(=O)c2nnn3c2nc(N2CCN(C)CC2)c2sccc23)c1	·	?	·	·	5.1%[59 µM]	·
c1ccc2nc3ccccc3nc2c1	-8.4%	1.1%	-2.5%	-1.1%	44.7µM*	15.7%
c1ccc2nc3ccccc3cc2c1	·	·	?	·	30.9%[59 µM]	6.9%
C/C(=N\Nc1ccccc1)c1c(O)[nH]c(=O)[nH]c1=O	-6.7%	8.3%	·	·	·	-9.4%
CC/C(=N\NC(=S)Nc1ccccc1)c1c(O)[nH]c(=O)[nH]c1=O	?	-54.1%	·	·	-130.8%[59 µM]	22.4µM*
CCOc1ccc(N=C2SCCCN2C)cc1	-7.6%	-4.8%	-2.8%	7.2%	3.55µM*	-2.0%
O=C1C(Cc2cnc[nH]2)NC(=S)N1c1ccccc1 (stereo unspecified)	·	-9.6%	·	·	50.1µM*	50.1µM*
S=C(NCCc1ccccc1)NCCc1cnc[nH]1	·	-18.7%	·	·	16.2%[0.501 µM]	?
Cc1cc(O)c2c(c1)C(=O)c1cc(O)cc(O)c1C2=O	2.9%	·	22.4µM*	?	1.68µM*	-2.8%
O=C(c1cc(-c2cccnc2)nc2ccc(Cl)cc12)N1CCC2(CC1)OCCO2	1.0%	0.2%	7.08µM*	-3.0%	9.5%[12.7 µM]	10.6%
O=C(c1cc(-c2cccnc2)nc2ccccc12)N1CCC2(CC1)OCCO2	5.4%	-0.9%	?	-0.4%	5.6%[59 µM]	11.1%
COc1ccc(/C=C2/C(=O)NC(=O)N(Cc3ccco3)C2=O)cc1	-2.0%	0.1%	3.3%	·	10µM*	?
